# Results published in patent US10125134B2 (Mirati Therapeutics, Inc., priority 2016, dated 2018).
# Biological target: KRas G12C (Homo sapiens, UniProt P01116, C118S/C51S/C80L/G12C)
# Test: KRas G12C Modification Assay (LCMS detection of covalent adduct)
# Assay type: binding
# Settings: normalized percent of control; tested at 5 μM concentration for 3 hours
structure (smiles),measurement,value
"C=CC(=O)N1CCN(c2nc(OC[C@@H]3CCCN3C)nc3c2CCN(c2cc(O)cc4ccccc24)C3)CC1 [Example 127, (S)-1-(4-(7-(3-hydroxynaphthalen-1-yl)-2-((1-methylpyrrolidin-2-yl)methoxy)-5,6,7,8-tetrahydropyrido[3,4-d]pyrimidin-4-yl)piperazin-1-yl)prop-2-en-1-one]",POC,C (“C”>50% POC)
"C=CC(=O)N1CCN(c2nc(OC[C@H]3CCCN3C)nc3c2CCN(c2cc(O)cc4ccccc24)C3)CC1 [Example 187, (R)-1-(4-(7-(3-hydroxynaphthalen-1-yl)-2-((1-methylpyrrolidin-2-yl)methoxy)-5,6,7,8-tetrahydropyrido[3,4-d]pyrimidin-4-yl)piperazin-1-yl)prop-2-en-1-one]",POC,C (“C”>50% POC)
"C=CC(=O)N1CCN(c2nc(OC[C@@H]3CCCN3C)nc3c2CCN(c2cccc4ccccc24)C3)CC1 [Example 200, (S)-1-(4-(2-((1-methylpyrrolidin-2-yl)methoxy)-7-(naphthalen-1-yl)-5,6,7,8-tetrahydropyrido[3,4-d]pyrimidin-4-yl)piperazin-1-yl)prop-2-en-1-one]",POC,C (“C”>50% POC)
